# Assay outcomes from PubChem.
# Rows were chosen to be rich in hits. Some 0.73% of all compounds tested hit in one or more screens of this group.
# Xi reactivation: activators of X-chromosome reactivation in mouse fibroblasts. XiGFP mouse fibroblasts, % GFP-positive cells imaging, 3 d; cells co-treated with 5-aza-dC sensitizer; scaled so ellipticine positive control = 100%. activation, % at 7.58 µM. 360,000 compounds, 0.055% hits;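 active means mean normalized replicate activation at least 10% and every replicate at or above 10%; inconclusive means only one of the two criteria met; inactive means mean below 10% and not all replicates reach 10%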;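 further: 0% = median of on-plate neutral control wells and 100% = ellipticine 6 µM median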
#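 System: 68-5-11 XiGFP fibroblast line; Timing: 3 days compound exposure; Compound dosing: one concentration, pinned; Benchmarks: positive control ellipticine, 6 µM final; Buffer or medium: DMEM containing 5-aza-dC.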
# RAD52 anneal inh: RAD52 (human) annealing inhibition; P43351; recombinant RAD52 DNA annealing, FRET fluorescence; inhibition, % at 18.7 µM; 360,000 compounds, 0.46% hits;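 active means every replicate showing at least 50% inhibition; inconclusive means mean inhibition at least 50% but not in every replicate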
# E-selectin induc: induces E-selectin expression in human endothelial cells. activation, % at 7.58 µM. P16581. 260,000 compounds, 0.37% hits. HUVEC E-selectin immunofluorescence imaging; normalized: neutral wells 0, TNF-alpha wells 100. AID 686992;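 active means mean E-selectin-positive cell signal at least 10% of the positive control, reached in at least 60% of replicates, without over 20% cell loss; inconclusive means no rule given, readout overlaps actives, possibly toxicity-flagged; inactive means the rest, including those meeting only one limit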
#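 System: HUVEC, human umbilical vein endothelial cells; quantity: 3,000 cells/well; buffer or medium: EGM-2 medium, gelatin-coated wells; dosing: single-point compound dose; detection: immunofluorescence imaging; evaluation: % PE-positive cells; benchmarks: TNF-alpha, DMSO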
# RAD54 inh: RAD54 (human) branch migration inhibition. Q92698. 360,000 compounds, 0.14% hits. RAD54 Holliday junction branch migration, FAM/BHQ fluorescence. inhibition, % at 10.4 µM;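 active means mean normalized replicate activity at least 40 and at least half of replicates scoring 40 or more; inconclusive means only one of the two criteria met; inactive means mean below 40 and under half of replicates reaching 40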;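 further: 0% = median of neutral control wells and 100% = median of positive control wells; inhibitors cause a drop in the FAM fluorescence signal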
# UUG fidelity: alters start codon recognition fidelity in yeast; S. cerevisiae UUG-firefly luciferase reporter, luminescence/redox ratio; activity score, % at 18.7 µM; actives 0.13% (n = 350,000); AID 602363;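 active = replicate mean at a twofold rise or more, about +100% in these data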;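 also: firefly luciferase made from a UUG start codon reports start codon fidelity; reporter light over untreated wells divided by growth signal over untreated wells; some hits fall short of that in this replicate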
# DNA binder FP: counter-screen for RAD52 inhibitors: DNA binding compounds. shares compounds with RAD52 anneal inh. Salmon sperm DNA/acridine orange FP displacement. AC50, µM. 1,000 compounds, 8% hits. AID 652128;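 active means fitted half-maximal concentration for signal loss at or below twice the highest dose tested, in every separate run, actives reach about 64 µM in these data; inconclusive means runs disagree, or flat partial signal loss, or poor fit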
# Numbers without * were called inactive; i = inactive; u = inconclusive; x = no result.
SMILES,Xi reactivation,RAD52 anneal inh,E-selectin induc,RAD54 inh,UUG fidelity,DNA binder FP
C[C@@H]1CN([C@H](C)CO)C(=O)c2cc(C3=CCCCC3)cnc2O[C@H]1CN(C)C(=O)NC1CCCC1,-1,7,-1,6,2,x
CCCNC(=O)N(C)C[C@H]1Oc2cc(C3=CCCCC3)ccc2S(=O)(=O)N([C@@H](C)CO)C[C@@H]1C,0,17,0,0,9,x
COc1cc(/C=C/c2cc[n+](C)cc2)ccc1OCC(=O)Nc1ccc(Cl)c(Cl)c1,0,69*,x,-3,21,i
CN(C)c1ccc(C(CN)c2c[nH]c3ccccc23)cc1 (stereo unspecified),0,84*,11,-8,1,i
CC(C)/C(=N\NC(=O)Nc1ccccc1)c1ccccc1,x,x,x,-19,-8,x
C/C(=N\NC(=O)Nc1ccccc1)c1ccccc1,0,100*,x,-6,-3,i
CN/C(=C/[N+](=O)[O-])NCCSCc1csc(CN(C)C)n1,0,-14,-2,-8,17,x
CN=C(C[N+](=O)[O-])NCCSCc1ccc(CN(C)C)o1,0,57*,0,-18,-15,i
COCCNCC(O)CON=C1c2ccccc2-c2ccccc21 (stereo unspecified),0,-13,-2,x,x,x
CC(C)CCNCC(O)CON=C1c2ccccc2-c2ccccc21 (stereo unspecified),0,66*,0,x,x,i
Cc1ccccc1Cn1c2ccccc2c2cnn(CC(=O)NCCCN3CCOCC3)c(=O)c21,0,-6,x,6,4,x
Cc1ccccc1Cn1c2ccccc2c2cnn(CC(=O)NCCCN3CCN(C)CC3)c(=O)c21,0,71*,x,21,3,i
O=C(C[C@@H]1C=C[C@H](NC(=O)CN2CCOCC2)[C@@H](CO)O1)NCCc1ccccc1,0,7,0,3,-7,x
Cc1cc(N/N=C/c2ccc(O)cc2)c2cccc(C)c2n1,1,77*,x,118*,-2,52µM*
Cc1cc(N/N=C/c2ccc(N(C)C)cc2)c2ccccc2n1,0,-207,x,-7,-19,x

# Single records (already shown). Order of values: Xi reactivation | RAD52 anneal inh | E-selectin induc | RAD54 inh | UUG fidelity | DNA binder FP
# Listed for C/C(=N\NC(=O)Nc1ccccc1)c1ccccc1 → 0 | 100* | x | -6 | -3 | i
# Listed for Cc1ccccc1Cn1c2ccccc2c2cnn(CC(=O)NCCCN3CCN(C)CC3)c(=O)c21 → 0 | 71* | x | 21 | 3 | i
# Listed for CC(C)/C(=N\NC(=O)Nc1ccccc1)c1ccccc1 → x | x | x | -19 | -8 | x

# (continued)
SMILES,Xi reactivation,RAD52 anneal inh,E-selectin induc,RAD54 inh,UUG fidelity,DNA binder FP
Cc1cc(C)c2nc(C)cc(N/N=C/c3ccc(O)cc3)c2c1,2,94*,x,119*,-16,u
CCCNC(=O)C[C@@H]1CC[C@@H]2[C@H](COC[C@H](O)CN2Cc2cccc(F)c2)O1,0,-1,0,-6,-1,x
Fc1ccccc1-c1nc(NCCCN2CCOCC2)c2ccccc2n1,0,-3,0,x,x,x
c1ccc2c(NCCCN3CCOCC3)c3ccccc3nc2c1,0,93*,x,x,x,33µM*
Cc1noc(C)c1NC(=O)Nc1ccc2c(c1)C(=O)N([C@@H](C)CO)C[C@@H](C)[C@H](CN(C)Cc1ccncc1)O2,0,-5,0,-19,-20,x
COc1ccc(S(=O)(=O)N2CC[C@H]3[C@H](CO)Nc4ccc(C#Cc5cccnc5)cc4[C@H]32)cc1,0,-13,0,x,x,x
C[C@@H]1NC(=O)[C@H](CCCN=C(N)N)NC(=O)c2cc([N+](=O)[O-])cc(I)c2NCCC[C@@H](C(N)=O)NC1=O,0,86*,0,17,-9,i
NC(=O)[C@@H]1CCCCNc2c(F)cc([N+](=O)[O-])cc2C(=O)N[C@@H](CCCN=C(N)N)C(=O)NCC(=O)N1,0,61*,-1,10,-4,i
NCCCC[C@@H]1NC(=O)c2cc([N+](=O)[O-])cc(F)c2NCCCC[C@@H](C(N)=O)NC(=O)[C@H](CCC(N)=O)NC1=O,0,80*,0,22,-7,i
NCCCC[C@@H]1NC(=O)c2cc([N+](=O)[O-])cc(F)c2NCCCC[C@@H](C(N)=O)NC(=O)CNC1=O,0,-198,x,29,-5,x
C[C@@H]1CN([C@H](C)CO)C(=O)c2cc(NC(=O)CCN3CCOCC3)ccc2O[C@H]1CN(C)Cc1ccncc1,0,-2,-6,-2,x,x
CC(C)[C@H](N)c1cn([C@@H](CO)C(=O)N2CCNCC2)nn1,0,-16,0,0,11,x
N[C@@H](CO)c1cn([C@@H](Cc2cc3ccccc3[nH]2)C(=O)N2CCNCC2)nn1,0,93*,0,34,-11,i
CN(CCCCCCCCCCN(C)C(=O)Oc1cccc([N+](C)(C)C)c1)C(=O)Oc1cccc([N+](C)(C)C)c1,0,52*,2,-5,13,i
COC(=O)C[C@H]1CC[C@@H]2[C@H](COC[C@@H](O)CN2CCC(F)(F)F)O1,0,2,0,-3,-9,x
CN(C)c1ccc(-c2cc(O)c3ncccc3c2)cc1,0,-12,0,1,-16,x
CN(C)CCCNC(=O)c1ccc(-c2cc(O)c3ncccc3c2)cc1,1,101*,0,38,-25,i
CN1CCN(c2ccc(NC(=O)c3cc(S(N)(=O)=O)ccc3N3CCOCC3)cc2)CC1,0,72*,x,19,-5,i
CN1CCN(c2ccc(C(CC(N)=O)NC(=O)Cc3cccc4ccccc34)cc2[N+](=O)[O-])CC1 (stereo unspecified),0,56*,0,0,-12,u
O=C(Nc1ccc(N2CCCC2)cc1)c1cccc(-c2cc3ccccc3oc2=O)c1,0,58*,-3,2,-9,i
O=C(Nc1ccccc1N1CCCC1)c1cccc(-c2cc3ccccc3oc2=O)c1,0,x,3,-4,-5,x
CCN1CCN(Cc2c(C(=O)N/N=C(\C)c3ccc(Cl)cc3)nnn2-c2nonc2N)CC1,0,94*,x,15,-10,i
Cc1c(C(=O)Nc2ccc(S(=O)(=O)N(C)C3CCN(C)CC3)cc2)oc2c(Cl)cccc12,0,69*,x,9,-5,i
Cc1c(C(=O)Nc2ccc(S(=O)(=O)N(C)C3CCN(C)CC3)cc2)oc2ccccc12,0,30,x,6,-13,x
CC1(C)CC(NC(=O)c2ccc(Cl)c(S(=O)(=O)N(Cc3ccccc3)c3ccccc3)c2)CC(C)(C)N1,0,51*,1,13,13,i
COc1ccccc1N(Cc1ccccc1)S(=O)(=O)c1cccc(C(=O)NC2CC(C)(C)NC(C)(C)C2)c1,0,57*,-1,x,x,i
CC(C)(C)c1ccc(S(=O)(=O)N2CCN(C(=O)C(=O)c3cccc(C(F)(F)F)c3)CC2)cc1,0,-13,0,x,x,x
CO[C@H]1CN(C)C(=O)c2cc(NS(C)(=O)=O)ccc2OC[C@H](C)N(Cc2cccnc2)C[C@H]1C,0,x,0,x,x,x
Cc1noc(C)c1NC(=O)Nc1ccc2c(c1)C(=O)N([C@H](C)CO)C[C@@H](C)[C@@H](CN(C)CC1CCCCC1)OCCCC[C@H](C)O2,-1,4,3,0,43,x

# A second format for some results above.
# Values run as follows: Xi reactivation | RAD52 anneal inh | E-selectin induc | RAD54 inh | UUG fidelity | DNA binder FP
CC1(C)CC(NC(=O)c2ccc(Cl)c(S(=O)(=O)N(Cc3ccccc3)c3ccccc3)c2)CC(C)(C)N1
→ 0 | 51* | 1 | 13 | 13 | i
COc1ccccc1N(Cc1ccccc1)S(=O)(=O)c1cccc(C(=O)NC2CC(C)(C)NC(C)(C)C2)c1
→ 0 | 57* | -1 | x | x | i
